Drawing on PubChem BioAssay AID761 (NMMLSC, 2007), this text covers percent activity (GTP binding) for 24 molecules.

Chains of the proteins cited; added tags and fusions are not shown.
UniProt P60953, whole entry: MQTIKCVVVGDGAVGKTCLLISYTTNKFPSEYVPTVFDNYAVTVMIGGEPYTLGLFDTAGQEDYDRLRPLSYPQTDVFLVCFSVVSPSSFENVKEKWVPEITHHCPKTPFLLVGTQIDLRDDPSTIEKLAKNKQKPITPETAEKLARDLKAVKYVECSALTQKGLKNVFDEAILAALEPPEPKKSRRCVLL

The list shows a part of the results, in another mix than the full data. Calls of active or inactive are those of the source.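 Rule for the calls: active = percent activity GTP binding at least 20 points away from the 100% baseline, either down as inhibitor or up as activator; inconclusive = compound flagged as likely green fluorescent from well-wide comparison; inactive = the rest.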

The assay has as its target Cell division control protein 42 homolog (Homo sapiens) (UniProt P60953). Put plainly: wildtype Cdc42 fluorescent GTP binding changes, either direction – biochemical, multiplex bead flow cytometry, Bodipy-GTP, primary screen (AID 761).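 Note: median bead fluorescence of bound Bodipy-FL-GTP at 100 nM; 0% = excess unlabeled GTP control and 100% = no compound control; below 100% means less GTP binding so inhibitor and above means activator.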 The conditions noted are these: GST-Cdc42 beads, at 10 µM, actives lie on both sides. A general note: A flow cytometer gives signals particle by particle.
As for `O=C(OC1CN2CCC1CC2)C1c2ccccc2C=Cc2ccccc21` (centres undefined), the percent activity (GTP binding) is inactive: 99%. The figure for `N/C(=N\O)c1c(N)no[n+]1[O-]` is inactive: 102%. In the case of `COc1ccc(C(=O)NCC2(N3CCOCC3)CCCCC2)cc1OC`, the percent activity (GTP binding) was inactive: 102%. The figure for `c1ccc(CN2CCC(Nc3ccccc3)CC2)cc1` is inactive: 99%; for `N#Cc1ccc(C(=O)NCC2(N3CCCCC3)CCCCC2)cc1` it is inactive: 97%. Turning to `CN(C)c1ccc(C(=O)NCC2(N3CCCCC3)CCCCC2)cc1`, the percent activity (GTP binding) was inactive: 95%. As to `CCN1CCC(Nc2cccc(F)c2)CC1`, the percent activity (GTP binding) is inactive: 102%. The figure for `Fc1ccccc1NC1CCN(Cc2ccccc2)CC1` is inactive: 104%; for `COc1cc(OC)cc(C(=O)NCC2(N3CCOCC3)CCCCC2)c1` it is inactive: 96%; for `CC(C)(C)OC(=O)N1CCC(Nc2ccccc2)CC1` it is inactive: 104%. The figure for `CCOc1ncccc1C(=O)NCC1(N2CCOCC2)CCCCC1` is inactive: 100%. The figure for `CCOC(=O)N1CCC(Nc2ccc(OC)cc2)CC1` is inactive: 100%; for `O=C(OC1CN2CCC1CC2)C1c2ccccc2Oc2ccccc21` (centres undefined) it is inactive: 104%.

`O=C(NCC1(N2CCOCC2)CCCCC1)c1cc2ccccc2o1`: the percent activity (GTP binding) is inactive: 101%. The figure for `COc1ccc(C(=O)NCC2(N3CCCCC3)CCCCC2)c(OC)c1OC` is inactive: 98%. The figure for `COc1ccc(NC2CCN(CCc3ccccc3)CC2)c(OC)c1` is inactive: 100%; for `CN1CCN(CCOC(=O)C(O)(c2ccccc2)c2ccccc2)CC1` it is inactive: 104%. For the molecule `COc1ccc(NC2CCN(C(=O)OC(C)(C)C)CC2)cc1`, the percent activity (GTP binding) was inactive: 97%. As to `O=C(NCC1(N2CCOCC2)CCCCC1)c1cc(=O)[nH]c2ccccc12`, the percent activity (GTP binding) is inactive: 99%. As to `O=C(NCC1(N2CCCCC2)CCCCC1)c1cccc([N+](=O)[O-])c1`, the percent activity (GTP binding) was inactive: 95%. The figure for `N#CC1(Nc2ccccc2)CCN(CCc2ccccc2)CC1` is inactive: 106%; for `CN(C)c1cccc(C(=O)NCC2(N3CCCCC3)CCCCC2)c1` it is inactive: 99%. The figure for `COc1ccc(CN(CCCl)CCCl)cc1Cl` is inactive: 98%. The figure for `CC(C)c1ccc(NC2CCN(C(=O)OC(C)(C)C)CC2)cc1` is inactive: 94%.
